From BindingDB's records for patent US10172858 (Intellikine, 2019)

Amino acid sequences for entries named in this document (tags omitted). A change or cut given only in a name is not applied to a line headed by its entry.
UniProt P48736: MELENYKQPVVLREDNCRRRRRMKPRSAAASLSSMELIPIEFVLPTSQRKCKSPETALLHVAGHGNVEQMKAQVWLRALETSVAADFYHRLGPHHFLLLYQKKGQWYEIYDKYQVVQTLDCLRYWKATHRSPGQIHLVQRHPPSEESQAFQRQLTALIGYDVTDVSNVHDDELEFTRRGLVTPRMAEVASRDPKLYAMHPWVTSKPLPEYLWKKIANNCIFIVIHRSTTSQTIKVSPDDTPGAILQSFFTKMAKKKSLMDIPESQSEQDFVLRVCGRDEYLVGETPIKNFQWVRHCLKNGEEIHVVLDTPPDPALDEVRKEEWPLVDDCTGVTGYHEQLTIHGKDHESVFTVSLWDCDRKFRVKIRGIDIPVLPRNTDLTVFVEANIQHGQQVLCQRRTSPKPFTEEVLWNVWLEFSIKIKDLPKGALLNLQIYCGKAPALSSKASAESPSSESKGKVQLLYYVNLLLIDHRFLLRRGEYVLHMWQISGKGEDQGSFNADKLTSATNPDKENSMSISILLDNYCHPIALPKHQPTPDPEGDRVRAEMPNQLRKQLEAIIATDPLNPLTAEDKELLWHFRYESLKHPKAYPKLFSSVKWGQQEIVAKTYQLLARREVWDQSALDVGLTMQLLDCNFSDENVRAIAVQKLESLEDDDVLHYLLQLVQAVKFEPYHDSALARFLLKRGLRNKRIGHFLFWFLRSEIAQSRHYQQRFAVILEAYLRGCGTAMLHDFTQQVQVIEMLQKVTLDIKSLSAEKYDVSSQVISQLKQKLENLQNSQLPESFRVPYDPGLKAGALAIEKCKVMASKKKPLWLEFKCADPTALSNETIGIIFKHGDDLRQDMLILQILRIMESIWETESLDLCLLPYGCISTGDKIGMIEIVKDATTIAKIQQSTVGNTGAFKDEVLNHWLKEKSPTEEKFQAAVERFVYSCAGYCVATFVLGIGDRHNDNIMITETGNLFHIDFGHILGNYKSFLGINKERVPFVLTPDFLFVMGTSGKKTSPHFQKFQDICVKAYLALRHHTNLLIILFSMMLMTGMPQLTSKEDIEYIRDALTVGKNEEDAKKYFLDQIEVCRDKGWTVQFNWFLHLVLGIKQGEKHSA
UniProt P42338: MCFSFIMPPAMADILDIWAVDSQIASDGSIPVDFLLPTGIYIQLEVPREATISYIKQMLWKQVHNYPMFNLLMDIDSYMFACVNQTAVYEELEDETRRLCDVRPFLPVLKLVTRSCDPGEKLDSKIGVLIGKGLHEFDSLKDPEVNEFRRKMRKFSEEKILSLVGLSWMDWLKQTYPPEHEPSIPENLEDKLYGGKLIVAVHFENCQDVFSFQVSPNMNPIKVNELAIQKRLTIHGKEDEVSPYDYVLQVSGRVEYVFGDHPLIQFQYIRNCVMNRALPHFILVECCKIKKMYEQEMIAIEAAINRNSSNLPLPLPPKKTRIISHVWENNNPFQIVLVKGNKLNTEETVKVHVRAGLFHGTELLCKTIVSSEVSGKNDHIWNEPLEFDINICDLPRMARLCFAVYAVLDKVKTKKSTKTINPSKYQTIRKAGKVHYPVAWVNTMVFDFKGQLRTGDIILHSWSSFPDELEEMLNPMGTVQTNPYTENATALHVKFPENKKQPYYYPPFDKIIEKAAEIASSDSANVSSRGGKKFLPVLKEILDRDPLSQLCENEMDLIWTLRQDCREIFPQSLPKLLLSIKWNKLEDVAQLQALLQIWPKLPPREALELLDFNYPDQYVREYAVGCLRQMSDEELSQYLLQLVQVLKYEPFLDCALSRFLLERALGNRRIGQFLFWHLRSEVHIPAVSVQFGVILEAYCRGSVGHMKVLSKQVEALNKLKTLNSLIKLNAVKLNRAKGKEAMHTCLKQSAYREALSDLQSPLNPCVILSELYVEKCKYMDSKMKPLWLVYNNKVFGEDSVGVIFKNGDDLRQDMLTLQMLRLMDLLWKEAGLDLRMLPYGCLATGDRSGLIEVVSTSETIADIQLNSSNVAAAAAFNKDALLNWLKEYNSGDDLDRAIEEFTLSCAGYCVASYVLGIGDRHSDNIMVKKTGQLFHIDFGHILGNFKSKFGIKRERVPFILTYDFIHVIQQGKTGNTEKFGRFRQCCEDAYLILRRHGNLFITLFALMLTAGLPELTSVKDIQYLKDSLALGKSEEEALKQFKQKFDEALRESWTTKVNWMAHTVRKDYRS

Experiments:
[1] = biological target: Phosphatidylinositol 4,5-bisphosphate 3-kinase catalytic subunit gamma isoform (Homo sapiens, UniProt P48736)
[2] = biological target: Phosphatidylinositol 4,5-bisphosphate 3-kinase catalytic subunit beta isoform (Homo sapiens, UniProt P42338)

IC50 [2] [µM]	SMILES	IC50 [1] [µM]
	CNc1noc2ccc(-c3nn(C(C)C)c4ncnc(N)c34)cc12 [US10172858, Table 1.15]	> 10
	Nc1noc2ccc(-c3nn(CCN4CCOCC4)c4ncnc(N)c34)cc12 [US10172858, Table 1.18]	> 10
	CCOC(=O)C(C)n1nc(-c2ccc3oc(N)nc3c2)c2c(N)ncnc21 (centres undefined) [US10172858, Table 1.24]	> 10
< 1	Nc1nc2cc(-c3nn(C4CC(O)C4)c4ncnc(N)c34)ccc2o1 (centres undefined) [US10172858, Table 1.26]	
